Measurements reported in ChEMBL document CHEMBL1134460, “Terminally alkylated polyamine analogues as chemotherapeutic agents” (J Med Chem, 2001).

By UniProt entry, the sequences of proteins in these tests, tags left out.
UniProt P21673, whole entry, looked up: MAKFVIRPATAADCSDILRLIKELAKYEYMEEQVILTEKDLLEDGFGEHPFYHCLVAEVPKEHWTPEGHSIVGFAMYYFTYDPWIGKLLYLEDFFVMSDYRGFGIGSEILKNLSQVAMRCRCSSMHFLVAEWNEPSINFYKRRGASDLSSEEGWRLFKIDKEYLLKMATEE

Target: Diamine acetyltransferase 1 (Homo sapiens, UniProt P21673)
Test: Inhibitory activity against human SSAT

CCNCCCNCCCNCCCOP(C)(=O)O
Ki: 50 µM
